Literature values, collected in patent US20260008048A1, “POLYSILOXANE-BASED DEVICES WITH REDUCED DRUG ABSORPTION CHARACTERISTICS” (THE JOHNS HOPKINS UNIVERSITY, priority 2022, published 2026).

Conditions: cited from earlier work

## Quinidine
  logP: 2.9
